Measurements as given in paper PMC10597491, “A mechanistically novel peptide agonist of the IL-7 receptor that addresses limitations of IL-7 cytokine therapy” (PLOS ONE, 2023).

Target: T1, IL-7R (Homo sapiens, UniProt P16871+P31785)
T1 construct: constructed to express full-length human IL-7Rα in TF-1 cells; TF-1 cells, which naturally express γc, but not IL-7Rα; expressed in transfected cells
T1 sequence (P16871 21-459): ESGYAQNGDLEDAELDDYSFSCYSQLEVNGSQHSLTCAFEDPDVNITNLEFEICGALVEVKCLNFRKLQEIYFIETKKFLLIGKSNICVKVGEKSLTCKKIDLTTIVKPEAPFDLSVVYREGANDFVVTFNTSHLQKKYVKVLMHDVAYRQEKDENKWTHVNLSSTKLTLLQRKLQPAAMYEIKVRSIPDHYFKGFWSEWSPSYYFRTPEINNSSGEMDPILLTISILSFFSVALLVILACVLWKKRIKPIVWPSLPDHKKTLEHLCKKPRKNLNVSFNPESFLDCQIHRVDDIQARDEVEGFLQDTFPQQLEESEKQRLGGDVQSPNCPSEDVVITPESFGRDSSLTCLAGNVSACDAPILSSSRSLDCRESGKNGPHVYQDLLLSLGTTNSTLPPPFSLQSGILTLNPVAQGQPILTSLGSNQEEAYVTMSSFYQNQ
T1 sequence (P31785 23-369): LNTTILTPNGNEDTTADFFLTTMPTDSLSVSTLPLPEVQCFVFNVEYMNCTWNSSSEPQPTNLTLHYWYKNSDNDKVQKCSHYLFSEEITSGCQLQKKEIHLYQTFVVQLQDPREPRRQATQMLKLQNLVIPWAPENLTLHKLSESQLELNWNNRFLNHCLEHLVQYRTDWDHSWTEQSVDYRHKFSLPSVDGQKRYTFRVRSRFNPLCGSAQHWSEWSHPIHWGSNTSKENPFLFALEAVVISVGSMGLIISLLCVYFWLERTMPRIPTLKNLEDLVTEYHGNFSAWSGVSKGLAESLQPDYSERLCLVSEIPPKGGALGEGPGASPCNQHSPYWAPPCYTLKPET
Assay: STAT5 phosphorylation in TF1-7Rα cells
Assay type: cell-based
Experimental: The synthetic peptide MDK1472 was designed to bind simultaneously to IL-7Rα and γc subunits and was tested for its ability to induce phosphorylation of STAT5, the primary IL-7R signaling pathway. An IL-7 responsive cell line, TF1-7Rα was constructed to express full-length human IL-7Rα in TF-1 cells, which naturally express γc, but not IL-7Rα.
Fig 3 IL-7Rα dependence of agonist activity induced by MDK1472 and MDK-703 in TF-1 and TF1-7Rα cells. Compound-induced STAT5 phosphorylation in (A) TF-1 (γc+) and (B) TF1-7Rα (IL-7Rαγc+) cells. (C) pSTAT5 accumulation in TF1-7Rα cells treated with IL-7 or MDK-703 in the presence of an IL-7 neutralizing antibody. Cells were pre-incubated for 15 min with 1 pM to 30 nM anti-IL-7, and test compounds were then added at concentrations equivalent to EC75 and incubated for an additional 30 min. Reactions were stopped and cell lysates prepared for pSTAT5 analysis.
Cells were deprived of growth factors by overnight incubation at 5×10^5 cells/mL in starvation medium (RPMI 1640 + 4.5 g/L glucose + 0.2% FBS + 2 mM L-glutamine + 1 mM NaPyr + 10 mM HEPES + 0.5x penicillin-streptomycin with no cytokine supplement) in T75 flasks. For assays, cells were plated in 96-well V-bottom plates at 2×10^5 cells/well. Three-fold serial dilutions in starvation medium of the test compounds or cytokine were added to the cells and incubated for 30 min at 37°C. […]

IL-7: human IL-7 cytokine (Peprotech)
effect of IL-7 neutralizing antibody on pSTAT5 stimulation (TF1-7Rα cells, 15 min pre-incubation with 1 pM to 30 nM anti-IL-7, compound at EC75, 30 min): completely inhibits | dependence of agonist activity on IL-7Rα expression (TF-1 parental (γc+) versus TF1-7Rα cells): completely dependent on IL-7Rα expression
